The values below are quoted from earlier work in PMC11768359, “2-Aminothiophene Derivatives—New Drug Candidates Against Leishmaniasis: Drug Design, Synthesis, Pharmacomodulation, and Antileishmanial Activity” (Pharmaceuticals, 2025).

For the data set, the system named is RAW 264.7 macrophages. To be noted: previously published; cited from earlier work.

As to `N#Cc1c(N)sc2c1CCCC2` [Compound 5], the CC50 was 125 µM.
